Experimental findings from patent publication US8680055B2, “Methods for decreasing steroidogenesis in prostate cancer cells” (University of Southern California, priority 2009, dated 2014) are described below.

“Also recorded” adds a separate entry of the source.

Format in all cases: cell-based, human
The test system of assay [1] is LNCaP cells. Kind of assay: Protein kinase A assay. Particulars: LH, compared to negative controls, p<0.05. How it is done:
Protein kinase A assay. PKA activity was measured using a PKA kinase activity assay kit (Assay Designs, Inc., Ann Arbor, Mich.) according to manufacturer's instructions. The PKA activity was measured in cells treated with LH and in negative controls. Each sample was standardized by protein concentration.

The test system of assay [2] is LNCaP cells. Description: Western blot analysis of steroidogenic enzymes in LH-treated cells. To be noted: LH 5.0 IU/ml for 96 hours. How it is done: Western blot analysis. Equal amounts of protein (10 μg) from cell lysates were heated at 95° C. for 5 min in the sample loading buffer, then subjected to SDS-PAGE and transferred to nitrocellulose membranes. The blots were probed overnight at 4° C. with the appropriate commercially available primary antibodies, including anti-LHR rabbit polyclonal antibody (1:200, Santa Cruz Biotech), anti-LH mouse monoclonal antibody (1:1000, Santa Cruz Biotech, Santa Cruz, Calif.), anti-CYP-17A1 rabbit polyclonal (1:400, Abeam, Cambridge, Mass.), anti-CYP-11A1 rabbit polyclonal antibody (1:400, Abeam), and anti-StAR mouse monoclonal antibody (1:500, Abeam). After incubation with the corresponding horseradish peroxidase-conjugated secondary antibodies, the blots were further probed with corresponding HRP-conjugated antibodies and visualized by enhanced chemiluminescence (Pierce, Rockford, Ill.). Rabbit anti-β-actin antibody (1:2,000, Sigma Chemical Co.) served as loading control. Quantification of the bands was performed with Quantity One software (Bio-Rad Lab, Hercules, Calif.).
Background: In western blotting, separated proteins are transferred to a membrane and probed.

For assay [3], the system named is LNCaP cells. Kind of assay: Cell viability assay. The procedure:
Cell viability assay. Cells were treated with LH at varying concentrations and incubated with 20 μl of Celltiter 96® Aqueous One Solution Cell Proliferation assay (Promega Co., Madison, Wis.) according to the manufacturer's instruction. The optical density was determined using a microplate reader (SpectraMax Plus) at 490 nm. The cell viability following LH treatment was expressed vs. negative control and plotted as the mean ±SD.

The test system of assay [4] is LNCaP cells. Kind of assay: Cyclic AMP assay. Particulars: LH 1.0 IU/ml, p<0.05. The procedure:
Cyclic AMP assay. The cAMP assay was performed using the correlate-EIA direct cAMP enzyme immunoassay kit (Assay Designs, Inc., Ann Arbor, Mich.) according to manufacturer's instructions.

Assay [5] has as its system C4-2B cells. Description: Real-time PCR analysis of steroidogenic gene expression after exposure to LH, C4-2B cells. How it is done: (§1) Real-time PCR analysis. The quantitative measurement of target mRNA was performed using a real-time PCR system (Applied Biosystems 7500, Foster, Calif.) according to the manufacturer's instructions. PCR amplifications were performed with the SYBR Green PCR core reagent (Applied Biosystems) in a volume of 10 μl, with 1 μl of the reverse transcription products. LH and steroidogenic enzyme RNA quantification were assayed with the following primers: AKR1C1, 5′-[…]-3′ (forward), 5′-[…]-3′ (reverse); AKR1C2, 5′-[…]-3′ (forward), 5′-[…]-3′ (reverse); AKR1C3, 5′-[…]-3′ (forward), 5′-[…]-3′ (reverse); CYB5, 5′-gaagagcctgattggacac-3′ (forward), 5% […]-3′ (reverse); CYP11A1, 5′-[…]-3′ (forward), 5′-[…]-3′ (reverse); CYP17A1, 5′-[…]-3′ (forward), 5′-[…]-3′ (reverse); FASN, 5′-[…]-3′ (forward), 5′-[…]-3′ (reverse); HSD3B2, 5′-[…]-3′ (forward), 5′-[…]-3′ (reverse); HSD17B2, 5′-[…]-3′ (forward), 5′-[…]-3′ (reverse); HSD17B3, 5′-[…]-3′ (forward), 5′-[…]-3′ (reverse); RDH5, 5′-cagcaatgcctttgtettca-3′ (forward), 5′-[…]-3′ (reverse); SRD5A1, 5′-[…]-3′ (forward), 5′-[…]-3′ (reverse); SRD5A2, 5′-gccctctcctcatagtgetg-3′ (forward), 5′-[…]-3′ (reverse); StAR, 5′-ggctactcagctcgacctc-3′ (forward), 5′-[…]-3′ (reverse); and LHR, 5′-tcaattcttgtccaatcca-3′(forward), 5′-[…]-3′ (reverse). Each gene under each condition was amplified in triplicate. Analysis was performed with Applied Biosystems' software and the relative expression was standardized using expression of 18S as a reference, 5′-[…]-3′ (forward), 5′-tcgggagtgggtaatttge-3′ (reverse). Results were plotted as the mean ±SD from three experiments.
In general terms: In qPCR the cycle at which signal appears reflects the starting amount.

Assay [6] relates to LNCaP cells. Kind of assay: Real-time PCR analysis of steroidogenic gene expression after exposure to LH, LNCaP cells. The procedure: as §1
(§2) LNCaP cells treated with LH at doses of 0.1 and 1.0 IU/ml for four hours. 5×10^5 cells were seeded and treated with LH for four hours on a 100-mm plastic dish in serum-free RPMI-1640 medium. The quantitative measurement of target mRNA was performed using a real time PCR system (Applied Biosystems 7500, Foster, Calif.) according to the manufacturer's instructions, with 50 cycles for the melting (95° C., 15 s) and annealing/extension (59° C., 60 s) steps. PCR amplifications were performed with SYBR Green PCR core reagent (Applied Biosystems) in a total volume of 10 μl, with 1 μl of the reverse transcription products. Each gene in each experimental condition was amplified in triplicate. Relative gene expression levels (y axis) for the indicated enzymes were normalized by expression of the 18S and compared to the control in the same sample. Unpaired two-sample t-tests were used and a p value <0.05 was considered significant. Results were plotted as mean ±S.D. from at least three experiments.
as §2, with “cells (5×10^5) were seeded and” for “cells”, “for 10 days” for “for four hours. 5×10^5 cells were seeded and treated with LH for four hours”, “in” for “in serum-free”, “RPMI-1640 medium supplemented with 1% charcoal-stripped FBS. LH and medium were replaced every two days.” for “RPMI-1640 medium.”, “gene at” for “gene in”, “experiments. Long-term treatment with LH for 10 days doubled the number of activated genes for steroidogenic enzymes (from 4 to 8) as compared to short-term 4-hour exposure to LH.” for “experiments.”

Assay [7] relates to 22Rv1 cells. Description: Real-time PCR analysis of steroidogenic gene expression after exposure to LH, 22Rv1 cells. The procedure:
as §1

The subject of assay [8] is LNCaP cells. Description: Steroid analysis by radioimmunoassay. Particulars: LH 1.0 IU/ml for 10 days, RIA, compared to controls. How it is done: Steroid analysis by radioimmunoassay. Concentrations of the steroids progesterone and testosterone were determined using radioimmunoassay as described previously (11-13). Data were normalized per 10^6 cells and expressed as the mean ±SD from three 100 ml cell culture dishes per group.

As for “LH: Human luteinizing hormone obtained from Fitzgerald Industries Intl.; added externally to prostate cancer cells”, the “increase in PKA activity” value in assay [1] was 34.1%. Further, the “densitometric measurement of expression of proteins” value in assay [2] is on record as “approximately two-fold increase”. For the same substance, in assay [2] (compared to untreated controls), the “expression of the steroidogenic proteins StAR, CYB5B, CYP11A and 3βHSD” value is “increased expression”. For the same substance, in assay [3] (LH 1.0 IU/ml, 72 hours, compared to the control group, p<0.05), the “increase in cell viability” value turned out to be 37%. For the same substance, the cell viability entry in assay [3] (LH at varying concentrations) is listed as “dose-dependent increase; also recorded: increases LNCaP cell viability to a similar degree as dihydrotestosterone (DHT)”. Moreover, the “increase in cAMP level” value in assay [4] was found to be 2.8 fold. The “number of significantly up-regulated genes, ten day vs short-term exposure” value in assay [5] (LH 1.0 IU/ml) is on record as “tripled”; in assay [7] (22Rv1 cells, LH 1.0 IU/ml), “tripled”. The “increase in the expression levels of up-regulated genes” value in assay [5] (LH 1.0 IU/ml, ten day treatment, compared to controls) is 2-6 fold; in assay [7] (22Rv1 cells, LH 1.0 IU/ml, ten day treatment, compared to controls), 2-6 fold. The steroidogenic gene expression entry in assay [5] (LH for 4 hours and 10 days) was “dose- and time-dependent increase”; in assay [6] (LH for 4 hours and 10 days), “dose- and time-dependent increase”; in assay [7] (22RV1 cells, LH for 4 hours and 10 days), “dose- and time-dependent increase”. In addition, the “number of up-regulated genes involved in androgen synthesis, 10 days vs 4-hour exposure” value in assay [6] (LH) is “twice as many genes; also recorded: doubled”. Further, the “number of genes involved in steroidogenesis significantly stimulated (out of 14 tested)” value in assay [6] (LH 0.1 and 1.0 IU/ml for 4 hours, p<0.05) amounted to 4 genes. Besides, the “number of genes involved in steroidogenesis significantly stimulated” value in assay [6] (LH 0.1 and 1.0 IU/ml for 10 days, P<0.05) was determined as 8 genes. Moreover, the “increase in expression of most of the genes examined” value in assay [6] (LH 1.0 IU/ml, ten day exposure, compared to controls) is 2-4 fold. Also, in assay [6] (LH for 4 hours, 0.1 and 1.0 IU/ml, compared to controls), the “expression of StAR, HSD17B3, SRD5A1 and CYP17A1” value is “dose-dependent increase”. Moreover, in assay [8], the production of progesterone result is “significantly stimulated; also recorded: significantly increased; also recorded: significant increase”. In assay [8], the production of testosterone result is recorded as “significantly stimulated; also recorded: significantly increased; also recorded: significant increase”.
